These are literature values, as cited in PMC12064631 (Clinical Pharmacokinetics, 2025).

Structures are written as SMILES.

In one data set the test system is DPP-4. To be noted: single dose of 25 mg, patients with type 2 diabetes; cited from earlier work.
Data set [1] concerns DPP-4 activity in the plasma. To be noted: plasma of humans, rodents, dogs, and monkeys, range over species; cited from earlier work.

With `Cn1c(=O)cc(N2CCC[C@@H](N)C2)n(Cc2ccccc2C#N)c1=O` [alogliptin], the “Emax,DPP-4” value with DPP-4 is 92.7%.

As a reminder, the IC50 is the midpoint of a concentration-inhibition curve. Turning to `N[C@@H](CC(=O)N1CCn2c(nnc2C(F)(F)F)C1)Cc1cc(F)c(F)cc1F` [sitagliptin, reference compound], in data set [1], the IC50 was 12.3 to 64.4 nM.
